# Read-outs that look alike come from different tables or passages of the source.
# The chains behind the UniProt entries cited, without tags or fusion partners.
# UniProt P49884, whole entry: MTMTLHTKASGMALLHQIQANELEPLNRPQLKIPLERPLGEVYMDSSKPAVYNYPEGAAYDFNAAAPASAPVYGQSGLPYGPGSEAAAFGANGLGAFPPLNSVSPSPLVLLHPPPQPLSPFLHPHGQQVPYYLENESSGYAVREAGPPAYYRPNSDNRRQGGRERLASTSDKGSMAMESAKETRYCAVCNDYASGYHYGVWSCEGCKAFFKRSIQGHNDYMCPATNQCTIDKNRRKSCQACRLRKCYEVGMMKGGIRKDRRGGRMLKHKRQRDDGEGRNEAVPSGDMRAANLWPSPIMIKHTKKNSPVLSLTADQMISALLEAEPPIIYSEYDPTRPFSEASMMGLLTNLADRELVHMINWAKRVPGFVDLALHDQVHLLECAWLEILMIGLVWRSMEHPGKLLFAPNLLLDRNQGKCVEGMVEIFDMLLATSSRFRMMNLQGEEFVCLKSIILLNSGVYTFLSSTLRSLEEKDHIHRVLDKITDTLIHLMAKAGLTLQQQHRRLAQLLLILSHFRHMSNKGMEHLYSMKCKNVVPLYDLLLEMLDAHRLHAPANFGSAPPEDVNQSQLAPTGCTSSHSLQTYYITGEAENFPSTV
# Target: T1, estrogen receptor (Bos taurus, UniProt P49884)
# T1 construct: from tissue; host or cells: bovine uterus cytosol
# Test: Inhibition of 3H-estradiol binding to bovine uteral estrogen receptors
# Conditions: 0.25 nM 3H-estradiol
structure (smiles),measurement,setting,value
"CC(=O)[C@H]1CC[C@H]2[C@@H]3CC[C@H]4C[C@](C)(O)CC[C@]4(C)[C@H]3CC[C@]12C [3α-HYDROXY-3β-METHYL-5α-PREGNAN-20-ONE, 3α-hydroxy-3β-methyl-5α-pregnan-20-one]",inhibition at 1 µM,"read-out: % of inhibition of 3H-estradiol binding, B, competitor 10^-5 M",6%
same,inhibition at 1 µM,"read-out: % of inhibition of 3H-estradiol binding, B, competitor 10^-6 M",0%

# Reference: patent US5232917A, “Methods, compositions, and compounds for allosteric modulation of the GABA receptor by members of the androstane and pregnane series” (priority 1991, dated 1993)
